Values quoted from earlier work as cited in US8852881B2, “Multiwell assay apparatus and method for determining biological activity of compounds” (Vertex Pharmaceuticals, Inc., priority 2004, dated 2014).

Amino acid sequences for entries named in this document (tags omitted). A change or cut given only in a name is not applied to a line headed by its entry. Chains listed by the source or under a name are the forms on record and can include a tag or linker.
UniProt P13569, with tags, fused parts or gaps DEL508-508: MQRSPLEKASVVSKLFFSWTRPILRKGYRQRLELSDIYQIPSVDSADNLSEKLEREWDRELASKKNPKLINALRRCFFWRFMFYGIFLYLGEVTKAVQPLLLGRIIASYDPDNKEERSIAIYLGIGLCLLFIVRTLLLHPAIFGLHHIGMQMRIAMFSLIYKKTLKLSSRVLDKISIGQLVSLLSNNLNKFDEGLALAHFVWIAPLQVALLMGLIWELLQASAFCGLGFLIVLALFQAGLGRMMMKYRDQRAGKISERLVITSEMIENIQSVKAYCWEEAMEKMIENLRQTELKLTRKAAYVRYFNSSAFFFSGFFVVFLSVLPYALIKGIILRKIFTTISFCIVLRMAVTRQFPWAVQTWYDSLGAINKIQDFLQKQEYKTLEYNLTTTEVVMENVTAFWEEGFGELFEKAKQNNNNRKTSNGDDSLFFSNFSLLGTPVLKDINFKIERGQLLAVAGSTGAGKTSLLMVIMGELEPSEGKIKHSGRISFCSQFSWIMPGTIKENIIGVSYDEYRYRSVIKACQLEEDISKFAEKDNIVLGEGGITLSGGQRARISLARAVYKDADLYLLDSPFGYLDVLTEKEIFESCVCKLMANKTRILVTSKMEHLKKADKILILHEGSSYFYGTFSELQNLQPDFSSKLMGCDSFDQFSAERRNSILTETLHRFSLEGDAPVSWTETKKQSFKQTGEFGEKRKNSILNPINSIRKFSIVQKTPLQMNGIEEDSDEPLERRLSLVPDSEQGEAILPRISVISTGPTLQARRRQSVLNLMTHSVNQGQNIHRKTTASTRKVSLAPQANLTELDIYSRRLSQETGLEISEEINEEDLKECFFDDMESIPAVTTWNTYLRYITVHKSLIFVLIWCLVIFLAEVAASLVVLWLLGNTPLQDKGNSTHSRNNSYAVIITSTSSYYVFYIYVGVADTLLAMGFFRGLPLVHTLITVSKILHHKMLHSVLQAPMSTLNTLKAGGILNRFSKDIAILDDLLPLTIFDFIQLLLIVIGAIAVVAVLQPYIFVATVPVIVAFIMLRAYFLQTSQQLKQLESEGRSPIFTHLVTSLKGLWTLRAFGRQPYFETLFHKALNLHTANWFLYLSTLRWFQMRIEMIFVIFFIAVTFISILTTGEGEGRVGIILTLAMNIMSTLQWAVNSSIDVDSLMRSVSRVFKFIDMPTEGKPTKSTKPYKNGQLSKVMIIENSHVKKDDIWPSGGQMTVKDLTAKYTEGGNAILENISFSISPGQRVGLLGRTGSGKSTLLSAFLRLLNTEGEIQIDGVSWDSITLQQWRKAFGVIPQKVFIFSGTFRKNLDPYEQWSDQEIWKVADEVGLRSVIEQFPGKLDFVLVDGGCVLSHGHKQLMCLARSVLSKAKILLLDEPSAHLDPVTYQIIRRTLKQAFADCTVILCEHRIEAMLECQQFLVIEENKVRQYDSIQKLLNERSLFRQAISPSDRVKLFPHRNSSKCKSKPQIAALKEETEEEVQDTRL

Target: T1, ΔF508-CFTR (Homo sapiens, UniProt P13569, DEL508-508)
T1 construct: expressed in transfected cells; host or cells: Fischer Rat Thyroid (FRT) epithelial cell line
Details: published value; n=47; read-out: EC-50, published value; cited from earlier work

O=c1c(-c2ccc(O)cc2)coc2cc(O)cc(O)c12 [genistein]
EC50: 14.8 ± 3.8 µM
